Data published in BindingDB's records for 19121582.

Chains of the proteins cited; added tags and fusions are not shown. Residues count along the entry.
UniProt P22748, 19-284 limits assumed: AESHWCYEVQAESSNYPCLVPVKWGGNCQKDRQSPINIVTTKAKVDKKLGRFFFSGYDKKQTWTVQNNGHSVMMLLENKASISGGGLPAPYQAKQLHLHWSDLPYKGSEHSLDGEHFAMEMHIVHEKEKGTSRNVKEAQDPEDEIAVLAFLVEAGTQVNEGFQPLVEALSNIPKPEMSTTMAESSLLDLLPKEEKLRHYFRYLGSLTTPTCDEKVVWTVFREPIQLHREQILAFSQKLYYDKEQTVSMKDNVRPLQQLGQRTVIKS

Molecular target: Carbonic anhydrase 4 (Homo sapiens, UniProt P22748)

## O=[As](O)(O)c1ccccc1
  Ki: 13.9 mM
